Kd data for 1 substance are collected here from publication PMC4878873.

A word on the Kd: it is the free concentration of one partner at which half of the binding sites on the other are occupied at equilibrium, for simple one-to-one binding. Low values mean tighter binding, high ones weaker binding.

For the experiment, the target named is COP9-Signalosome (CSN), wild type (human) (UniProt Q13098). The note with it: complex, chains chain;chain;chain;chain, dansyl.

For “Cul1^d/Rbx1 assembled with Skp2/Skp1 (from UniProt Q13616 1-776; P62877 1-108; P63208 1-163; Q13309 1-424)”, the Kd amounted to 240 nM.
